# Binding of CDR-mutated scFvs to a peptide of the spike HR2 region

Target peptide (SARS-CoV-2 spike, HR2 region): PDVDLGDISGINAS

Parent scFv Ab-14: VH joined to VL by a 15-residue (Gly4Ser)3 linker. Changes lie in the heavy chain CDRs alone.
VH: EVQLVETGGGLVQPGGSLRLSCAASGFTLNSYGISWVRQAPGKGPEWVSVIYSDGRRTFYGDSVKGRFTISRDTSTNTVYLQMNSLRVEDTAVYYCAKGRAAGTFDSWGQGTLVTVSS
VL: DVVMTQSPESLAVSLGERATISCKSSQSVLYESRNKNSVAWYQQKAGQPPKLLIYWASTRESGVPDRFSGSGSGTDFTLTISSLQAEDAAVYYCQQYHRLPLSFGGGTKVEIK

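Phage display of a naive human antibody library on the peptide gave the parent. The variants were designed computationally from a first round of random CDR variants and then made and measured. Group labels follow the data file (Ctrl: baseline library sampled from a position-specific scoring matrix, with some repeated check sequences; En: ensemble of fine-tuned language models; HC: hill climbing; Gen: genetic algorithm; Gibbs: Gibbs sampling; a sequence that several methods proposed may carry one label only). The assay is AlphaSeq: two haploid yeast populations carry antibody and antigen on their surface. Binding brings cells together so that they mate, and sequencing counts the barcode pairs among the diploids. Scores were corrected for input abundance and mapped to Kd with protein pairs of known affinity run in the same pool. The assay was run in six technical replicates.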

Variants are written as CDR1, CDR2 and CDR3 of the heavy chain (limits as in the source). Parent: GFTLNSYGIS, VIYSDGRRTFYGDSVK, GRAAGTFDS.
This list holds designs with more than six substitutions.
The Kd shown is the geometric mean over detected replicates; a lower Kd is a better binder.
A pair that was not seen in any replicate is written "no signal"; this usually means weak binding, but a binder can also be missed.
Nonspecific signal, from three strains lacking the peptide, appeared in 1% of pairings of all heavy chain designs, centred on 120 nM (5% of these signals below 7.0 nM); values are not corrected for it.
Values of this round are not directly comparable with the first-round values of the same sequences.
In the paper, a design with two or fewer of six values counts as a poor binder.

Variant GFDLNEYGIS | VIYADGVRTFYVDSVK | GETAGTFDI [En_HC] showed no signal (0 of 6 replicates). For GFDLNEYGIS | VIYADGRRTFYADSVK | GEAGGTFDE [En_HC], the assay gave no signal (0 of 6 replicates). With GFDLDEYGIS | VIYADGRRTFYADSVK | GNVAGTFDT [En_HC] the result was 670 pM (6 of 6 replicates). For GFDLNEYGIS | VIYADGRRTFYSDSVK | GTVAGTFDE [En_HC], the assay gave 400 pM (6 of 6 replicates). For GFDLNEYGIS | VIYADGRRTAYSDSVK | GETGGTFDV [En_HC], the assay gave 1.1 nM (6 of 6 replicates).

Variant GFDLNEYGIS | VIYADGVRTAYSDSVK | GQNAGTFDT [En_Gen] showed 1.4 nM (6 of 6 replicates). Variant GFDLNEYGIS | VIYADGRRTFYADSVK | GTAGGTFDV [En_HC] showed 5.6 nM (3 of 6 replicates). For GFDLNEYGIS | VIYADGSRTAYADSVK | GKNAGTFDV [En_Gen], the assay gave 320 pM (6 of 6 replicates). Variant GFNLDEYGIS | VIYADGMRTFVTEAVK | GSNADFVFA [En_Gibbs] showed no signal (0 of 6 replicates). For GFDLDEYGIS | VIYADGQRTFYQDSVK | GQNAGTFDQ [En_HC], the assay gave 910 pM (6 of 6 replicates).

Variant GFDLDEYGIS | VIYADGMRTAYADSVK | GNQAGTFDT [En_Gen] gave 310 pM (6 of 6 replicates). For GFDLNEYGIS | VIYADGQRKAYADDVK | GNVAGTFDV [En_Gen], the assay gave 380 pM (6 of 6 replicates). With GFSLDEYGIS | VIYADGVRQAYQDSVK | GNWHGTMMY [En_Gibbs] the result was no signal (0 of 6 replicates). Variant GFDLNEYGIS | VIYADGKRQAYADSVK | GNNAGTFDV [En_Gen] gave 180 pM (6 of 6 replicates). Variant GFDLDEYGIS | VIYADGKRTAYSDSVK | GETAGTFDL [En_Gen] showed 230 pM (6 of 6 replicates).

For GFDLNEYGIS | VIYADGRRTFYADSVK | GTSAGTFDQ [En_HC], the assay gave 290 pM (6 of 6 replicates). Variant GFDLDEYGIS | VIYADGMRKAYSDSVK | GNVAGTFDV [En_Gen] showed 310 pM (6 of 6 replicates). Variant GFDLNEYGIS | VIYADGRRTFYSDSVK | GQLAGTFDT [En_HC] gave 340 pM (6 of 6 replicates). Variant GFDLNEYGIS | VIYADGKRMAYANKVK | GLMAGTMID [En_Gibbs] showed no signal (0 of 6 replicates). Variant GFDLEDYGIS | VIYADGRRTFYADSVK | GEVAGTFDL [En_HC] showed 450 pM (6 of 6 replicates).

For GFDLNEYGIS | VIYADGRRTQYIDSVK | GEAAGTFDV [En_HC], the assay gave 250 pM (6 of 6 replicates). With GFDLNEYGIS | VIYADGRRTFYLDSVK | GQLAGTFDI [En_HC] the result was 170 pM (6 of 6 replicates). Variant GVNLDEYGIS | VIYADGVRSHYAESVK | GMHGDFGVV [En_Gibbs] showed 22 µM (1 of 6 replicates). Variant GFDLDEYGIS | VIYADGMRKAYADSVK | GNVAGTFDT [En_Gen] showed 4.0 nM (2 of 6 replicates). For GFDLNEYGIS | VIYADGRRTSYIDSVK | GNVAGTFDT [En_HC], the assay gave 390 pM (6 of 6 replicates).

Variant GFTLNEYGIS | VIYSDGWRTFYTDKVK | GKAACTFDI [Ctrl] showed no signal (0 of 6 replicates). With GFDLDEYGIS | VIYADGKRTAYSDSVK | GNVAGTFDL [En_Gen] the result was 370 pM (6 of 6 replicates). Variant GFDLNEYGIS | VIYADGRRTFYADSVK | GSLAGTFNM [En_HC] gave 1.0 nM (6 of 6 replicates). Variant GFNLNEYGIS | VIYADGMRTFYSDSVK | GEAGGTFDV [En_HC] showed 1.5 nM (6 of 6 replicates). Variant GFDLNEYGIS | VIYADGKRTFYIDSVK | GENAGTFDV [En_HC] gave 1.0 nM (6 of 6 replicates).

Variant GFDLNEYGIS | VIYADGMRSYYADSVK | GNTAGTFDV [En_Gen] gave 3.2 nM (6 of 6 replicates). Variant GFDLNEYGIS | VIYADGKRTAYADSVK | GEVAGTFDV [En_Gen] gave 300 pM (6 of 6 replicates). Variant GFDLDEYGIS | VIYADGKRTAYSDSVK | GQNAGTFDL [En_Gen] showed 480 pM (6 of 6 replicates). For GFDLNEYGIS | VIYADGRRTFYADSVK | GQIAGTFIV [En_HC], the assay gave 1.4 nM (6 of 6 replicates). Variant GFDLDEYGIS | VIYADGMRTAYTDSVK | GNVAGTFDQ [En_Gen] showed 320 pM (6 of 6 replicates).

A selection of 3 entries from above:

With GFDLNEYGIS | VIYADGRRTFYADSVK | GTSAGTFDQ [En_HC] the result was 290 pM (6 of 6 replicates).
With GFDLDEYGIS | VIYADGMRKAYSDSVK | GNVAGTFDV [En_Gen] the result was 310 pM (6 of 6 replicates).
With GFNLNEYGIS | VIYADGMRTFYSDSVK | GEAGGTFDV [En_HC] the result was 1.5 nM (6 of 6 replicates).

The measurements come from Li et al. 2023 (doi:10.1038/s41467-023-39022-2) through the FLAb antibody collection.